Source: ChEMBL document CHEMBL6103628, “Structural Optimization of Covalent Inhibitors for Deubiquitinase ChlaDUB1 of Chlamydia trachomatis as Antibiotic Agents” (J Med Chem, 2025)

Legend:
[1] = target: T1, Deubiquitinase and deneddylase Dub1 (Chlamydia trachomatis serovar L2 (strain ATCC VR-902B / DSM 19102 /434/Bu)) (UniProt B0B9A0); assay: Binding affinity to recombinant Chlamydia trachomatis DUB1 (130 to 401 residues) assessed as Kinact/Ki ratio using Ub-Rh110Gly as fluorogenic substrate incubated for 360 mins by Michaelis-Menten analysis
T1 sequence (whole entry): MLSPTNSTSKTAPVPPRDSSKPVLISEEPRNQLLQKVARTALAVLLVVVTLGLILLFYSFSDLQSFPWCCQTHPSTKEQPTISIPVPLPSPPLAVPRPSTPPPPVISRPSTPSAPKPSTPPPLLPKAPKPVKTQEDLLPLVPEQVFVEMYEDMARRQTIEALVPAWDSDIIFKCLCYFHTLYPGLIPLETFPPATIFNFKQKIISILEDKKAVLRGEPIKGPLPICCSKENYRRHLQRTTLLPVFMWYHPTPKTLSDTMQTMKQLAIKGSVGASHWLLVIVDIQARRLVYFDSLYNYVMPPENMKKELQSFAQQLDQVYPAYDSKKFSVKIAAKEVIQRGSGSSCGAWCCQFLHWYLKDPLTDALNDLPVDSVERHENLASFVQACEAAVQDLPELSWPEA

[2] = target: T1, Deubiquitinase and deneddylase Dub1 (Chlamydia trachomatis serovar L2 (strain ATCC VR-902B / DSM 19102 /434/Bu)); assay: Binding affinity to recombinant Chlamydia trachomatis DUB1 (130 to 401 residues) assessed as inactivation rate constant (Kinact) using Ub-Rh110Gly as fluorogenic substrate incubated for 360 mins by Michaelis-Menten analysis

Ratio [1]: 396 M⁻¹ s⁻¹
Kinact [2]: 2.79 min⁻¹
Compound: N#Cc1nc(C(=O)NCc2c[nH]c3ccccc23)co1
